Laboratory results: US20230106511A1, “PBP3 BINDING BICYCLIC PEPTIDE LIGANDS” (priority 2020, published 2023)

T1: PBP3 of E. coli (E. coli), P0AD68
T1 chain: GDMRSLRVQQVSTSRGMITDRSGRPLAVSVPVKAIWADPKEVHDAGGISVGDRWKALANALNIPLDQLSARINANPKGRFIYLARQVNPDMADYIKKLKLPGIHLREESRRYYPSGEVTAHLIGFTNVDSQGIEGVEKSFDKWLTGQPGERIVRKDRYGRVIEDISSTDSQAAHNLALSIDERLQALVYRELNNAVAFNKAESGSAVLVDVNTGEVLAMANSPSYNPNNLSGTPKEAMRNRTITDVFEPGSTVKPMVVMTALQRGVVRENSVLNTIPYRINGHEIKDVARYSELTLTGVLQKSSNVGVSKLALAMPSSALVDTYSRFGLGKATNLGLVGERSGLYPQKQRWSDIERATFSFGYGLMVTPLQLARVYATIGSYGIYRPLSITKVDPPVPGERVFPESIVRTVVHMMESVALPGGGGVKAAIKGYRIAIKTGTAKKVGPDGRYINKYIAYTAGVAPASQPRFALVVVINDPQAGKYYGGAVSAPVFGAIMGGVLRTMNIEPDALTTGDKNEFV

B1: BCY13227 (peptide)
peptide: ACSFPMCPWVENCA
modifications: not checked
B2: BCY13420 (peptide)
peptide: ACSFPKCPWVEACA
modifications: not checked
B3: BCY13657 (peptide)
peptide: ACSAPKCPWVEGCA
modifications: not checked
B4: BCY13658 (peptide)
peptide: ACSFAKCPWVEGCA
modifications: not checked
B5: BCY13660 (peptide)
peptide: ACSFPKCAWVEGCA
modifications: not checked
B6: BCY13663 (peptide)
peptide: ACSFPKCPWVAGCA
modifications: not checked
B7: BCY13747 (peptide)
peptide: ACKFPVCPWVEYCA
modifications: not checked
B8: BCY13748 (peptide)
peptide: ACHFPTCPWVEWCA
modifications: not checked
B9: BCY13749 (peptide)
peptide: ACTFPACPWVEYCA
modifications: not checked
B10: BCY13750 (peptide)
peptide: ACLFPGCPWVEHCA
modifications: not checked
B11: BCY13751 (peptide)
peptide: ACFFPQCPWVEGCA
modifications: not checked
B12: BCY13753 (peptide)
peptide: ACHFPVCPWVENCA
modifications: not checked
B13: BCY13754 (peptide)
peptide: ACHFPKCPWVEGCA
modifications: not checked
B14: BCY13755 (peptide)
peptide: ACEFPKCPWVEGCA
modifications: not checked
B15: BCY13756 (peptide)
peptide: ACYFPKCPWVEGCA
modifications: not checked
B16: BCY13757 (peptide)
peptide: ACSYPKCPWVEGCA
modifications: not checked
B17: BCY13758 (peptide)
peptide: ACSFPKCPWVEHCA
modifications: not checked
B18: BCY13759 (peptide)
peptide: ESWCTFPKCPWVEGCA
modifications: not checked
B19: BCY13760 (peptide)
peptide: EDRCHFPKCPWVEGCA
modifications: not checked
B20: BCY13761 (peptide)
peptide: SGHCSFPKCPWVEGCA
modifications: not checked
B21: BCY13762 (peptide)
peptide: ACSFPKCPWVEHCSSI
modifications: not checked
B22: BCY13763 (peptide)
peptide: ACSFPKCPWVENCKVD
modifications: not checked
B23: BCY13765 (peptide)
peptide: ACYYPKCPWVEGCA
modifications: not checked
B24: BCY13766 (peptide)
peptide: ACRFPKCPWVEGCA
modifications: not checked
B25: BCY13767 (peptide)
peptide: ACSFPICPWVEGCA
modifications: not checked
B26: BCY13769 (peptide)
peptide: ACIYPKCPWVEGCA
modifications: not checked
B27: BCY13952 (peptide)
peptide: ACSFAKCPWVEGCA
modifications: not checked
B28: BCY13953 (peptide)
peptide: ACSFPACPWVEGCA
modifications: not checked
B29: BCY13961 (peptide)
peptide: ACSFPTCPWVEGCA
modifications: not checked
B30: BCY13962 (peptide)
peptide: ACVFPKCPWVEGCA
modifications: not checked
B31: BCY13963 (peptide)
peptide: ACTFPKCPWVEGCA
modifications: not checked
B32: BCY13965 (peptide)
peptide: ACSFPHCPWVEGCA
modifications: not checked
B33: BCY13966 (peptide)
peptide: ACHYPKCPWVEGCA
modifications: not checked
B34: BCY13967 (peptide)
peptide: ACEYPKCPWVEGCA
modifications: not checked
B35: BCY13968 (peptide)
peptide: ACSFPLCPWVEGCA
modifications: not checked
B36: BCY13969 (peptide)
peptide: ACAFPHCPWVEFCA
modifications: not checked
B37: BCY13970 (peptide)
peptide: ACQFPGCPWVEFCA
modifications: not checked
B38: BCY13971 (peptide)
peptide: ACIFPKCPWVEGCA
modifications: not checked
B39: BCY13972 (peptide)
peptide: ACSFPSCPWVEHCA
modifications: not checked
B40: BCY13973 (peptide)
peptide: ACWFPGCPWVEHCA
modifications: not checked
B41: BCY13975 (peptide)
peptide: ACRFPDCPWVEHCA
modifications: not checked
B42: BCY13976 (peptide)
peptide: ACHFPTCPWVEYCA
modifications: not checked
B43: BCY13977 (peptide)
peptide: ACVFPACPWVEYCA
modifications: not checked
B44: BCY13978 (peptide)
peptide: ACNFPECPWVEHCA
modifications: not checked
B45: BCY13979 (peptide)
peptide: ACRFPNCPWVEHCA
modifications: not checked
B46: BCY13980 (peptide)
peptide: ACVFPTCPWVEHCA
modifications: not checked
B47: BCY13981 (peptide)
peptide: ACYFPGCPWVENCA
modifications: not checked

What was measured:
[1] = molecular target: T2, PBP3 (E. coli) (Escherichia coli, UniProt P0AD68); test: Fluorescence polarisation competition study using BCY12820 as tracer; type: binding; conditions: competition with BCY12820 as tracer
Method: Fluorescence polarisation competition was carried out using a BODIPY labelled Penicillin tracer and unlabelled peptides, for competition to an unmodified PBP protein. Polarisation was measured using a PHERAstar FS by BMG Labtech fitted with a FP 485 520 520 optic module.
Fluorescent BODIPY labelled penicillin at 5 mM in DMSO were diluted to 6.25 nM in binding buffer (10 mM HEPES, pH8, 300 mM NaCl, 2% glycerol). Unmodified PBP were diluted to 2 μM in binding buffer. A two-fold dilution series of unmodified peptide was prepared across 12 wells in binding buffer, with the highest final well concentration being 60 μM, and the lowest concentration being […]. 5 μl of the unmodified peptide dilution series or Carbenicillin were added to 12 wells of a 384-Well NBS™ Low Volume Microplate (Fisher Scientific). 10 μl diluted fluorescent BODIPY labelled penicillin (6.25 nM) were then added to the 12 wells containing the unmodified peptide dilutions. 10 μl of unmodified PBP (2 μM) were then added to the 12 wells containing unmodified peptide and fluorescent BODIPY labelled penicillin to bring the total volume to 25 μl, and the final concentration of Fluorescent BODIPY labelled penicillin to 2.5 nM and unmodified PBP to 800 nM.
A control well lacking unmodified peptide was prepared with a final fluorescent BODIPY labelled penicillin concentration of 2.5 nM and a final concentration of unmodified PBP of 800 nM to a final volume of 25 μl in binding buffer. A second control well lacking unmodified peptide and unmodified PBP was prepared with a final fluorescent BODIPY labelled penicillin concentration of 2.5 nM to a final volume of 25 μl in binding buffer.
Fluorescence polarisation was measured every 5 minutes for a period of one hour at room temperature. The gain and focal height were optimised using the control well lacking unmodified peptide and unmodified PBP. Wells were excited at 485 nm, and emission detection was set at 520 nm.
Data were analysed in GraphPad software to derive values for the inhibition constant. Experiments were repeated at least three times.
A further fluorescence polarisation competition study was carried out using BCY12820 as a tracer and the results are shown in Table 3: […]

[2] = molecular target: T2, PBP3 (E. coli); test: Fluorescence polarisation direct binding assay; conditions: direct binding to PBP 3 (E. coli)
Method: Fluorescence polarisation was carried out using fluorescein-labelled peptides with unmodified PBP protein and measured using a PHERAstar FS by BMG Labtech fitted with a FP 485 520 520 optic module.
Fluorescent peptides at 10 mM in DMSO were diluted to 2.5 nM in binding buffer (10 mM HEPES, pH8, 300 mM NaCl, 2% glycerol). A two-fold dilution series of PBP protein was then prepared across 12 wells in binding buffer, with the highest concentration being 21 μM, and the lowest concentration being 17 nM.
10 μl diluted fluorescent peptide (2.5 nM) was added into 12 wells of a 384-Well NBS™ Low Volume Microplate (Fisher Scientific). 10 μl PBP dilution series was then added to the wells containing the fluorescent peptide, and 5 μl binding buffer was added to bring the total volume to 25 μl and the final concentration of peptide tracer to 1 nM. A control well lacking PBP protein was prepared with a final peptide concentration of 1 nM to a final volume of 25 μl in binding buffer. Fluorescence polarisation was measured every 5 minutes for a period of one hour at room temperature. The gain and focal height were optimised using the control well lacking protein. Wells were excited at 485 nm, and emission detection was set at 520 nm.
Data were analysed in GraphPad software to derive values for the dissociation constant. Experiments were repeated at least three times. […]

[3] = molecular target: T1, PBP3 of E. coli (E. coli), P0AD68; test: FP competition, tracer BCY12820

Row | Molecule | Ki [3] | also measured
1 | A-(SEQ ID NO: 12)-A [BCY13424] | – | Ki [1]: 0.025 µM
2 | A-(SEQ ID NO: 8)-A [BCY13419] | – | Ki [1]: 0.04 µM
3 | [FI]-G-[Sar5]-A-(SEQ ID NO: 1)-A [BCY12820] | – | Kd [2]: 0.005 µM; Ki [1]: 0.005 µM
4 | A-(SEQ ID NO: 40)-A [BCY13953] | – | Ki [1]: 38.4 µM
5 | A-(SEQ ID NO: 1)-A-[Sar6]-[KFI] [BCY12806] | – | Kd [2]: 2.1 µM
6 | A-(SEQ ID NO: 39)-A [BCY13952] | – | Ki [1]: 118 µM
7 | B1 | 0.027 µM | –
8 | B2 | 0.029 µM | –
9 | B3 | 0.331 µM | –
10 | B4 | 0.072 µM | –
11 | B5 | 0.294 µM | –
12 | B6 | 0.012 µM | –
13 | B7 | 11.3 µM | –
14 | B8 | 10.5 µM | –
15 | B9 | 5.56 µM | –
16 | B10 | 10.9 µM | –
17 | B11 | 9.64 µM | –
18 | B12 | 21.7 µM | –
19 | B13 | 12.6 µM | –
20 | B14 | 14.5 µM | –
21 | B15 | 14 µM | –
22 | B16 | 14.8 µM | –
23 | B17 | 15.2 µM | –
24 | B18 | 11.4 µM | –
25 | B19 | 8.95 µM | –
26 | B20 | 12.6 µM | –
27 | B21 | 13 µM | –

Row | Molecule | Ki [3] | also measured
28 | B22 | 9.82 µM | –
29 | B23 | 1.47 µM | –
30 | B24 | 4.68 µM | –
31 | B25 | 5.39 µM | –
32 | B26 | 4.18 µM | –
33 | B27 | 118 µM | –
34 | B28 | 38.4 µM | –
35 | B29 | 13.2 µM | –
36 | B30 | 12.1 µM | –
37 | B31 | 12.1 µM | –
38 | B32 | 11.2 µM | –
39 | B33 | 10.5 µM | –
40 | B34 | 14 µM | –
41 | B35 | 9.47 µM | –
42 | B36 | 7.32 µM | –
43 | B37 | 7.87 µM | –
44 | B38 | 12.1 µM | –
45 | B39 | 10.6 µM | –
46 | B40 | 10.9 µM | –
47 | B41 | 7.9 µM | –
48 | B42 | 7.35 µM | –
49 | B43 | 5.02 µM | –
50 | B44 | 14.8 µM | –
51 | B45 | 8.46 µM | –
52 | B46 | 7.99 µM | –
53 | B47 | 2.13 µM | –
